Here are results for one substance from article PMC3678023 (Journal of Molecular Biology, 2013).

Chains of the proteins cited; added tags and fusions are not shown.
UniProt P31652, whole entry: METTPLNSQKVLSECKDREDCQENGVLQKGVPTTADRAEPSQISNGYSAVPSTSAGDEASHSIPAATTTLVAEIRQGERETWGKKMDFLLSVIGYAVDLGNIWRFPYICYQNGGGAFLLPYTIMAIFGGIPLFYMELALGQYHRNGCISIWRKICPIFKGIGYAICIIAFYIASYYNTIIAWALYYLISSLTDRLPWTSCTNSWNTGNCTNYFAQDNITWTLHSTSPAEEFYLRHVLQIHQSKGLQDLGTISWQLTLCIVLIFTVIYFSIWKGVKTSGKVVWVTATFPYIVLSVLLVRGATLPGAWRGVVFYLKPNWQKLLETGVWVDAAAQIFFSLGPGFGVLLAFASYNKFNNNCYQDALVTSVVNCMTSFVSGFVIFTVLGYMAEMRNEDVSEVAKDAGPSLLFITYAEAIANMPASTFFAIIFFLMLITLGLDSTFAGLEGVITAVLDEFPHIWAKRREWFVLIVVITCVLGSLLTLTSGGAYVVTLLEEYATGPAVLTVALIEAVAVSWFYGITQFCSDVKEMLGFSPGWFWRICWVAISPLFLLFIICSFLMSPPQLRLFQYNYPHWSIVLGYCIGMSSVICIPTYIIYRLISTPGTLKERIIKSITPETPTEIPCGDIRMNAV

In the assay the target is wild-type SERT (Rattus norvegicus, UniProt P31652). The following applies: read-out: Apparent Ki; wild-type SERT membranes, 0.2 nM [125I]RTI55.

Take ibogaine: the Ki was 20 ± 14 nM.
